For orientation: pEC50 means −log10 of the EC50, conventionally taken in molar units. Broadly, the pKi is −log10 of the Ki, conventionally taken in molar units.

SMILES strings stand for the structures. pEC50, pKi: −log10 of the molar value.

The record followed here is patent US8846929B2, “Substituted-quinoxaline-type piperidine compounds and the uses thereof” (priority 2007, dated 2014).

Assay [1] deals with T1, human opioid receptor-like (ORL-1) (Homo sapiens (Human), UniProt P41146). Briefly: In vitro ORL-1 receptor [35S]GTPγS functional assay. It is filed as biochemical. The note with it: mean ± SEM; for pEC50: read-out: GTPγS ORL-1 EC50. Background: GTPγS resists hydrolysis and so accumulates on activated G proteins.
Assay [2] deals with T2, kappa opioid receptor (Homo sapiens (Human), UniProt P41145). Briefly: In vitro kappa-opioid receptor [35S]GTPγS functional assay. It is filed as biochemical. The note with it: mean ± SEM; for pEC50: read-out: GTPγS Opioid Receptor Kappa EC50.
Assay [3] addresses T3, μ-opioid receptor (Homo sapiens (Human), UniProt P35372). Briefly: In vitro mu-opioid receptor [35S]GTPγS functional assay. As to conditions: mean ± SEM; for pEC50: read-out: GTPγS Opioid Receptor Mu EC50.
The target in another assay is delta opioid receptor (Homo sapiens (Human), UniProt P41143). Nature of the assay: In vitro delta-opioid receptor binding assay ([3H]-Naltrindole displacement). As to conditions: for Ki [Average ± Std Deviation] Opioid Receptor Delta: recombinant receptor expressed in CHO-K1 cells.
Assay [4] has as its target T1, human opioid receptor-like (ORL-1). Briefly: In vitro ORL-1 receptor binding assay ([3H]-nociceptin displacement).
Assay [5] addresses T2, kappa opioid receptor. Nature of the assay: In vitro kappa-opioid receptor binding assay ([3H]-U69,593 displacement).
Assay [6] concerns the target T3, μ-opioid receptor. Nature of the assay: In vitro mu-opioid receptor binding assay ([3H]-diprenorphine displacement). As to conditions: read-out: Ki [Average ± Std Deviation] Opioid Receptor Mu.

`CCOC(=O)c1nc2ccccc2n([C@H]2C[C@H]3CCC[C@@H](C2)N3C(C)CCC(C)C)c1=O` (stereo partly shown): the figures for the pEC50 (in assay [1]; at kappa opioid receptor [2]; at μ-opioid receptor [3]) were 6.68, 5.82 and 5.21, respectively.
For `NC(=O)CNc1nc2ccccc2n([C@H]2C[C@H]3CC[C@@H](C2)N3C2CCCCCCC2)c1=O`, in that order: 7.14, 5.22 and 5.45.
On to `CCOC(=O)[C@@H]1CN(CCNc2nc3ccccc3n([C@H]3C[C@H]4CC[C@@H](C3)N4C3CCCCCCC3)c2=O)C[C@H]1C(=O)OCC`, for which the “GTPγS ORL-1 Emax” value in assay [1] was determined as 68 ± 3%. Further, the pEC50 in assay [1] was 6.67; on kappa opioid receptor [2] it was 6.37. Besides, on kappa opioid receptor [2], the “GTPγS Opioid Receptor Kappa Emax” value was found to be 11.7 ± 0.3%. The values for the pKi (on delta opioid receptor; in assay [4]; at kappa opioid receptor [5]) were below 4.70, 7.61 and 7.79, respectively.
`O=C1NC(=O)C2(CCN(c3nc4ccccc4n([C@H]4C[C@H]5CC[C@@H](C4)N5C4CCCCCCC4)c3=O)CC2)N1`: in assay [1], the “GTPγS ORL-1 Emax” value worked out at 90% and the pEC50 is 6.76. Moreover, at kappa opioid receptor [2], the “GTPγS Opioid Receptor Kappa Emax” value stood at 0.25% and the pEC50 is below 4.70. Further, on μ-opioid receptor [3], the “GTPγS Opioid Receptor Mu Emax” value was 21% and the pEC50 was below 4.70.
Regarding `O=C1CNc2ccccc2N1C1CCN(C2CCCCCCC2)CC1`, the pEC50 in assay [1] is 6.71; on kappa opioid receptor [2], 5.71; on μ-opioid receptor [3] it was 5.51.
Take `CN(CC(=O)O)[C@H]1CCN(c2nc3ccccc3n([C@H]3C[C@H]4CCC[C@@H](C3)N4C3CCCCCCC3)c2=O)C1`: the pEC50 is 6.66 in assay [1], 5.12 at kappa opioid receptor [2] and 5.16 on μ-opioid receptor [3].
Regarding `O=C(N[C@H](C(=O)O)c1ccccc1)c1nc2ccccc2n([C@H]2C[C@H]3CC[C@@H](C2)N3C2CCCCCCC2)c1=O`, the pEC50 in assay [1] was 7.10; on kappa opioid receptor [2] it was 4.55; on μ-opioid receptor [3] it was 4.69.
`O=c1c(N2CCc3ccccc3C2)nc2ccccc2n1C1CCN(C2CCCCCCC2)CC1`: in assay [1], the “GTPγS ORL-1 Emax” value came to 88.3 ± 2.7% and the pEC50 was 6.32. For the same molecule, at kappa opioid receptor [2], the “GTPγS Opioid Receptor Kappa Emax” value came out at 12.67 ± 1.5% and the pEC50 was 6.51. Besides, at μ-opioid receptor [3], the “GTPγS Opioid Receptor Mu Emax” value is listed as 1.77 ± 0.4% and the pEC50 was 5.19.
Take `O=C(O)c1nc2ccccc2n([C@H]2C[C@H]3CC[C@@H](C2)N3C2CCCCCCC2)c1=O`: the pEC50 in assay [1] is 6.74; on kappa opioid receptor [2], 5.91; on μ-opioid receptor [3] it was 5.39.
For `CC1(C)[C@H]2CC[C@@H](CCN3[C@@H]4CC[C@H]3C[C@@H](n3c(=O)c(C(=O)O)nc5ccccc53)C4)[C@@H]1C2`, in that order: 8.04, below 4.70 and 6.24.
As for `CC(C)CC(C)N1[C@@H]2CCC[C@H]1C[C@@H](n1c(=O)c(C(=O)O)nc3ccccc31)C2` (stereo partly shown), the “GTPγS ORL-1 Emax” value in assay [1] was 102.7 ± 2.7%. Also, at kappa opioid receptor [2], the “GTPγS Opioid Receptor Kappa Emax” value came to 6.7 ± 1.2%. Also, the pKi on kappa opioid receptor [5] was 6.28.
For the molecule `CCOC(=O)C1CN(CCNc2nc3ccccc3n([C@H]3C[C@H]4CC[C@@H](C3)N4C3CCCCCCC3)c2=O)C[C@H]1C(=O)OCC` (stereo partly shown), the “GTPγS ORL-1 Emax” value in assay [1] was 66.3 ± 2.4%. The “GTPγS Opioid Receptor Kappa Emax” value on kappa opioid receptor [2] was 13.0 ± 1.7%. Moreover, the pKi on delta opioid receptor was 4.17; in assay [4], 7.21; on kappa opioid receptor [5] it was 7.51.
On to `O=c1c(NCC(O)CO)nc2ccccc2n1[C@H]1C[C@H]2CC[C@@H](C1)N2C1CCCCCCC1` (stereo partly shown), for which the pEC50 is 7.29 in assay [1], 5.38 on kappa opioid receptor [2] and 5.21 at μ-opioid receptor [3].
On to `O=C(O)c1nc2ccccc2n([C@H]2C[C@H]3CCC[C@@H](C2)N3C23CCCC(CCC2)C3)c1=O`, for which, on delta opioid receptor, the pKi was 5.69.
As for `COc1nc2ccccc2n([C@H]2C[C@H]3CC[C@@H](C2)N3C2CCCCCCC2)c1=O`, the pKi at μ-opioid receptor [6] was 6.61; in assay [4], 8.38; on kappa opioid receptor [5], 6.79.
Take `O=C(NCC(O)CO)c1nc2ccccc2n([C@H]2C[C@H]3CC[C@@H](C2)N3C2CCCCCCC2)c1=O` (stereo partly shown): the pEC50 in assay [1] is 7.17; at kappa opioid receptor [2] it was 5.59; at μ-opioid receptor [3], 5.44.
As for `CC(C)CCC(C)N1[C@@H]2CCC[C@H]1C[C@@H](n1c(=O)c(C(=O)O)nc3ccccc31)C2` (stereo partly shown), the “GTPγS ORL-1 Emax” value in assay [1] came out at 90.0 ± 2%. On delta opioid receptor, this molecule had a pKi of 5.96.
Take `O=c1c(N2CCOCC2)nc2ccccc2n1C1CCN(C2CCCCCCC2)CC1`: in assay [1], the “GTPγS ORL-1 Emax” value is reported as 43 ± 1.7% and the pEC50 is 5.73. The pKi at μ-opioid receptor [6] is 4.87. On delta opioid receptor, this molecule gave a pKi of 4.12.
Turning to `O=C(O)CN1CCN(c2nc3ccccc3n([C@H]3C[C@H]4CC[C@@H](C3)N4C3CCCCCCC3)c2=O)CC1`, the “GTPγS ORL-1 Emax” value in assay [1] is listed as 78%. Also, at kappa opioid receptor [2], the “GTPγS Opioid Receptor Kappa Emax” value amounted to 10.7% and the pEC50 is below 4.70. The pKi at kappa opioid receptor [5] is 6.66.
For `O=C(N[C@H](C(=O)O)c1ccccc1)c1nc2ccccc2n([C@H]2C[C@H]3CCC[C@@H](C2)N3C2CCCCCCC2)c1=O`, the pEC50 is 7.27 in assay [1], 6.68 at kappa opioid receptor [2] and 5.28 on μ-opioid receptor [3].
Take `CCOC(=O)c1nc2ccccc2n([C@@H]2C[C@H]3CCC[C@@H](C2)N3C/C=C2\CCC3CC2C3(C)C)c1=O`: in assay [1], the “GTPγS ORL-1 Emax” value is reported as 87.0%. Moreover, the “GTPγS Opioid Receptor Kappa Emax” value on kappa opioid receptor [2] is given as 5.3%. The negative-log Ki (pKi) at delta opioid receptor is 6.41; in assay [4], 7.98; on kappa opioid receptor [5], 7.69. Besides, the “GTPγS Opioid Receptor Mu Emax” value on μ-opioid receptor [3] is on record as 21.7%.
On to `O=C(O)c1nc2ccc(F)cc2n([C@H]2C[C@H]3CC[C@@H](C2)N3C2CCCCCCC2)c1=O`, for which the “GTPγS ORL-1 Emax” value in assay [1] came to 81.3 ± 3.0%. The pKi on delta opioid receptor is 4.60.
Turning to `CS(=O)(=O)N1CCC(Nc2nc3ccccc3n(C3CCN(C4CCCCCCC4)CC3)c2=O)CC1`, in assay [1], the “GTPγS ORL-1 Emax” value is recorded as 68 ± 2.5% and the pEC50 was 6.44. For the same molecule, the “GTPγS Opioid Receptor Mu Emax” value on μ-opioid receptor [3] was determined as 6 ± 4%.
As to `O=c1c(NC[C@@H](O)CO)nc2ccccc2n1[C@H]1C[C@H]2CC[C@@H](C1)N2C1CCCCCCC1`, the pEC50 was 6.99 in assay [1], 6.02 on kappa opioid receptor [2] and 5.35 on μ-opioid receptor [3].
For `O=C(O)c1nc2ccccc2n([C@H]2C[C@H]3CC[C@@H](C2)N3C23CCC(CC2)C3)c1=O`, in assay [1], the “GTPγS ORL-1 Emax” value was determined as 74.7 ± 3.8%. The values for the pKi (at μ-opioid receptor [6]; at delta opioid receptor; in assay [4]) were 5.26, below 4.70 and 6.89, respectively.
On to `CCOC(=O)c1nc2ccccc2n([C@H]2C[C@H]3CCC[C@@H](C2)N3C(C)CC(C)C)c1=O` (stereo partly shown), for which the “GTPγS ORL-1 Emax” value in assay [1] is reported as 98.3 ± 1.7%. In addition, the “GTPγS Opioid Receptor Kappa Emax” value at kappa opioid receptor [2] stood at 7 ± 0.6%. In addition, the pKi at delta opioid receptor was 5.54; in assay [4], 8.00; at kappa opioid receptor [5], 7.07. Moreover, the “GTPγS Opioid Receptor Mu Emax” value on μ-opioid receptor [3] is 56 ± 6.5%.
For `O=C(O)[C@@H]1CN(CCNc2nc3ccccc3n([C@H]3C[C@H]4CC[C@@H](C3)N4C3CCCCCCC3)c2=O)C[C@H]1C(=O)O`, the pKi on μ-opioid receptor [6] was 4.43; at delta opioid receptor it was below 4.70; in assay [4], 6.98; on kappa opioid receptor [5] it was 6.17.
With `CSCCC(NC(=O)c1nc2ccccc2n([C@H]2C[C@H]3CC[C@@H](C2)N3C2CCCCCCC2)c1=O)C(=O)O` (stereo partly shown), the “GTPγS ORL-1 Emax” value in assay [1] was found to be 92.7 ± 2.3%. On kappa opioid receptor [2], the “GTPγS Opioid Receptor Kappa Emax” value is on record as 32.3 ± 9.2%. Further, the pKi at delta opioid receptor is 5.69; on kappa opioid receptor [5] it was 6.68.
`CC(NC(=O)c1nc2ccccc2n([C@H]2C[C@H]3CC[C@@H](C2)N3C2CCCCCCC2)c1=O)C(=O)O` (stereo partly shown): the “GTPγS ORL-1 Emax” value in assay [1] is listed as 56.5 ± 2.3%. Also, the “GTPγS Opioid Receptor Kappa Emax” value on kappa opioid receptor [2] was 20.3 ± 2.6%. At kappa opioid receptor [5], this molecule showed a pKi of 6.76.
On to `NC(=O)CNc1nc2ccccc2n(C2CCN(C34CC5CC(CC(C5)C3)C4)CC2)c1=O`, for which, in assay [1], the “GTPγS ORL-1 Emax” value is 87.7 ± 2.3%. Moreover, the “Ki [Average ± Std Deviation] Opioid Receptor Delta” value at delta opioid receptor was “inactive”.
On to `O=c1c(NCCO)nc2ccccc2n1C1CCN(C2CCCCCCC2)CC1`, for which, in assay [1], the “GTPγS ORL-1 Emax” value is on record as 51.7 ± 3.7% and the pEC50 is 6.22. This molecule gave a pKi at delta opioid receptor below 4.00.
`CC1(N2CCC(n3c(=O)c(C(=O)O)nc4ccccc43)CC2)CCCCCCC1`: in assay [1], the “GTPγS ORL-1 Emax” value was 88 ± 5% and the pEC50 is 6.68. The molecule also showed a pKi at delta opioid receptor below 4.70.
As for `NC(=O)c1nc2ccccc2n([C@H]2C[C@H]3CC[C@@H](C2)N3C2CCCCCCC2)c1=O`, the pEC50 in assay [1] is 7.21; on kappa opioid receptor [2], 5.95; on μ-opioid receptor [3] it was 5.15.
In the case of `N[C@@H]1CCN(c2nc3ccccc3n(C3CCN(C4CCCCCCC4)CC3)c2=O)C1`, in assay [1], the “GTPγS ORL-1 Emax” value amounted to 107 ± 3.1% and the pEC50 was 7.31. Besides, at kappa opioid receptor [2], the “GTPγS Opioid Receptor Kappa Emax” value came out at 11 ± 2.5% and the pEC50 is 6.56. At μ-opioid receptor [3], the “GTPγS Opioid Receptor Mu Emax” value is 2.33 ± 0.7% and the pEC50 is 5.21.
As to `NC(=O)C1CCN(c2nc3ccccc3n(C3CCN(C4CCCCCCC4)CC3)c2=O)CC1`, the “GTPγS ORL-1 Emax” value in assay [1] is on record as 85 ± 0.6%. In addition, the “Ki [Average ± Std Deviation] Opioid Receptor Delta” value at delta opioid receptor is “inactive”.
As for `O=C(O)CC(NC(=O)c1nc2ccccc2n([C@H]2C[C@H]3CC[C@@H](C2)N3C2CCCCCCC2)c1=O)C(=O)O` (stereo partly shown), the “GTPγS ORL-1 Emax” value in assay [1] stood at 81.3 ± 3.2%. The same molecule had a pKi on delta opioid receptor of 5.06.
